## Antibody variant affinities, Ab-95 light chain, assay 2

Binding partner: SARS-CoV-2 spike HR2 peptide, sequence PDVDLGDISGINAS.

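The parent was found by panning a naive human phage display library on the peptide. The library (AAYL52) carries one to three amino acid substitutions per variant, with no insertions or deletions. The assay is AlphaSeq: two haploid yeast populations carry antibody and antigen on their surface. After mating in shaken culture at 30 °C for 16 h, diploids were selected and their barcode pairs sequenced. The ratio of observed to expected reads was calibrated, replicate by replicate, on BCL2-family standards whose Kd was known from biolayer interferometry. There are three technical replicates.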

Each scFv is VH, the linker GGGGSGGGGSGGGGS, VL, as in the parent Ab-95, and differs from it in the CDRs of the light chain only.
VH: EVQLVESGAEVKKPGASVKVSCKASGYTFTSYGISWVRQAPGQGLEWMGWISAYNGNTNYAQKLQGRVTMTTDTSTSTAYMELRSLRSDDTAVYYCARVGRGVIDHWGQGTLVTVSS
VL: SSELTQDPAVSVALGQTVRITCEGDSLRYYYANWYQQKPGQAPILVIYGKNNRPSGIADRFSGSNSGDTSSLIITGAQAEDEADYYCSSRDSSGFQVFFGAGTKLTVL

Changes read parent residue, position, new residue, counted from the first residue of the VL shown.
Values are log10 of the apparent Kd in nM; lower means stronger binding.
Where no diploid with the target was found in that replicate, the entry reads "ND": below detection, most likely a poor binder, though not proof of it.
Nonspecific signal, from three strains lacking the peptide, appeared in 28% of pairings of library AAYL52, centred on 3.91 (5% of these signals below 2.90); values are not corrected for it. The control count says in how many pairings with the empty strains this scFv gave a signal, with their mean in brackets.
In this assay the parent's reference entry averaged 2.31; its copy inside this library read 2.25.

| # | changes | replicates, log10 nM | control signals |
|---|---|---|---|
| 1 | E23C G24D K50Q | 2.94 / 2.85 / ND | 2 of 9 (3.08) |
| 2 | E23H N52M S88C | 2.25 / 1.93 / 2.41 | 2 of 9 (3.58) |
| 3 | R28L G94S V97H | 3.18 / 3.01 / 3.30 | 2 of 9 (3.37) |
| 4 | G24W A32R R53H | 3.48 / ND / ND | 2 of 9 (3.60) |
| 5 | S26Q G49P R90W | ND / ND / 4.58 | 5 of 9 (4.16) |
| 6 | Y30G S55W F95K | 2.14 / 1.68 / 1.33 | 2 of 9 (4.56) |
| 7 | D25C R53W S88H | ND / 3.63 / ND | 1 of 9 (4.96) |
| 8 | K50R S55E D91F | 2.84 / 2.41 / 2.38 | 4 of 9 (3.74) |
| 9 | D25P A32T Q96S | 2.37 / 1.85 / 1.44 | 0 of 9 |
| 10 | N33T R53H S88K | 4.85 / 3.88 / ND | 3 of 9 (3.22) |
| 11 | K50C S92G G94P | 4.30 / 3.58 / ND | 4 of 9 (4.19) |
| 12 | R90H F98I | 2.59 / 2.27 / 2.67 | 2 of 9 (3.61) |
| 13 | D25K Y29G S92D | 1.31 / 1.51 / 0.80 | 0 of 9 |
| 14 | E23T K50S R53T | 2.82 / 2.57 / 2.15 | 1 of 9 (2.60) |
| 15 | R53H | 2.51 / 2.35 / 1.79 | 3 of 9 (3.31) |
| 16 | Y29M R53D S55K | ND / ND / ND | 0 of 9 |
| 17 | G24L Y30I S89Y | 3.54 / 3.35 / ND | 2 of 9 (3.64) |
| 18 | N52R S89D Q96N | 2.88 / ND / 4.59 | 3 of 9 (4.75) |
| 19 | Y30P N52W S89K | 2.78 / 3.08 / 3.31 | 8 of 9 (3.81) |
| 20 | S88N G94R V97C | 3.99 / ND / ND | 2 of 9 (3.68) |
| 21 | S26I Y30C K50S | 2.77 / ND / ND | 1 of 9 (4.36) |
| 22 | D25M R28Y Y29L | 3.01 / 2.38 / 4.10 | 1 of 9 (5.09) |
| 23 | G24R R28S S93R | 4.22 / ND / 3.08 | 3 of 9 (3.67) |
| 24 | G49F G94C V97S | 4.22 / ND / ND | 0 of 9 |
| 25 | L27S G49S S88W | ND / ND / ND | 3 of 9 (3.71) |
| 26 | Y29G G49I G94E | ND / ND / ND | 0 of 9 |
| 27 | R53G P54V G94W | ND / ND / 3.27 | 2 of 9 (4.53) |
| 28 | A32P D91W V97I | 2.65 / 2.39 / 3.20 | 5 of 9 (4.53) |
| 29 | Y30R Y31C S55F | 1.62 / 1.43 / 0.92 | 3 of 9 (4.98) |
| 30 | S55F S89E F98Y | 2.67 / 3.27 / 2.77 | 1 of 9 (3.10) |
| 31 | G49P P54N V97P | ND / ND / ND | 1 of 9 (3.88) |
| 32 | G24C Y31G G94P | 3.64 / 2.29 / 3.02 | 5 of 9 (4.10) |
| 33 | S88Y S93G F95V | ND / 3.83 / 3.38 | 4 of 9 (3.98) |
| 34 | R28G G49S V97K | 3.87 / 3.96 / ND | 3 of 9 (4.02) |
| 35 | Y30H N33A D91Y | 4.08 / 3.14 / 3.88 | 4 of 9 (3.97) |
| 36 | G49I S89F V97I | 3.06 / 4.24 / ND | 4 of 9 (3.36) |
| 37 | S93Y V97C | 4.03 / ND / 2.89 | 3 of 9 (3.89) |
| 38 | S26Q N52P D91Y | ND / ND / ND | 2 of 9 (4.40) |
| 39 | Y31F K50C V97R | 4.47 / 3.20 / 3.10 | 2 of 9 (4.11) |
| 40 | Y29N G49D | 2.03 / 1.76 / 1.57 | 2 of 9 (3.60) |
| 41 | L27T R28Q S93Y | 3.96 / 4.09 / ND | 1 of 9 (2.81) |
| 42 | P54F R90I S93D | 3.35 / 3.66 / 3.81 | 3 of 9 (4.63) |
| 43 | E23G N52K V97M | 2.64 / 2.43 / 2.21 | 3 of 9 (3.96) |
| 44 | S92C Q96A F98E | 4.64 / 3.29 / ND | 3 of 9 (3.43) |
| 45 | L27S S55R S89E | ND / ND / ND | 2 of 9 (4.06) |
| 46 | A32V G94T | 2.86 / 3.22 / 1.84 | 4 of 9 (3.80) |
| 47 | Y29A N51E S89C | 2.31 / 2.64 / 1.85 | 2 of 9 (3.56) |
| 48 | P54K S92Y F98A | 4.76 / 3.58 / 4.25 | 4 of 9 (3.07) |
| 49 | N51E P54M S92W | 4.28 / 3.49 / 4.30 | 0 of 9 |

Extract of 6 entries:

changes	replicates, log10 nM	control signals
Y30G S55W F95K	2.14 / 1.68 / 1.33	2 of 9 (4.56)
K50C S92G G94P	4.30 / 3.58 / ND	4 of 9 (4.19)
S88N G94R V97C	3.99 / ND / ND	2 of 9 (3.68)
E23G N52K V97M	2.64 / 2.43 / 2.21	3 of 9 (3.96)
L27S S55R S89E	ND / ND / ND	2 of 9 (4.06)
N33T R53H S88K	4.85 / 3.88 / ND	3 of 9 (3.22)

Source: Engelhart et al. 2022 (doi:10.1038/s41597-022-01779-4), MIT Lincoln Laboratory and A-Alpha Bio; data file from the FLAb repository.